Assay results reported in patent US20200362306A1 (published 2020).

Chains of the proteins cited; added tags and fusions are not shown. A line that says so, or that is headed by a name, gives the form on record, which may keep a tag or linker.
UniProt Q13421, other isoform, or with tags, fused parts or gaps limits assumed: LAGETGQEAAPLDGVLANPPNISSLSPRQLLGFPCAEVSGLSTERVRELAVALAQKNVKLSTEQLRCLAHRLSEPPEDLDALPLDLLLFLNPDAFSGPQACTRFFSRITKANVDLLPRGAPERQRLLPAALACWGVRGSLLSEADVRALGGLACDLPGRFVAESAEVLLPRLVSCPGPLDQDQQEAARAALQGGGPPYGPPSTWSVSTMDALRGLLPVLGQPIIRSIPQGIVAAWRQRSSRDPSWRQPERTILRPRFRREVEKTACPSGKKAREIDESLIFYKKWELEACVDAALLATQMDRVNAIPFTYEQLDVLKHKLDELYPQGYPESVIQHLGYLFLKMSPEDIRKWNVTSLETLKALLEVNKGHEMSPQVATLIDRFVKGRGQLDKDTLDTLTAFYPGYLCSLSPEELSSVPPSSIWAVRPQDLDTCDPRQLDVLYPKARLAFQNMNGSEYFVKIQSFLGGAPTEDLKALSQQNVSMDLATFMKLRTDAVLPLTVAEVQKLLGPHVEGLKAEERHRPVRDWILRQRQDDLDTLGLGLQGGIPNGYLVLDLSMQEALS

Biological target: human mesothelin expressed on target cells (human, UniProt Q13421)
Assay: cell-based or functional assay

tumor cell lysis, luciferase assay, 1-to-1 effector to target ratio, patients 1, 2, 4 and 5: ~50% | tumor cell lysis, luciferase assay, 1-to-5 effector to target ratio, patients 4 and 5: ~50% | tumor cell lysis, luciferase assay, 5-to-1 effector to target ratio, patient 3: ~35%
B1: SD1 CD3ε-TFP (other, not shown: large carriers)
chain: EVQLVESGGGLVQPGGSLRLSCAASGGDWSANFMYWYRQAPGKQRELVARISGRGVVDYVESVKGRFTISRDNSKNTLYLQMNSLRAEDTAVYYCAVASYWGQGTLVTVSSDGNEEMGGITQTPYKVSISGTTVILTCPQYPGSEILWQHNDKNIGGDEDDKNIGSDEDHLSLKEFSELEQSGYYVCYPRGSKPEDANFYLYLRARVCENCMEMDVMSVATIVIVDICITGGLLLLVYYWSKNRKAKAKPVTRGAGAGGRQRGQNKERPPPVPNPDYEPIRKGQRDLYSGLNQRRI
